Results on one compound are retold here after ChEMBL document CHEMBL1154690, “Identification of novel, selective, and stable inhibitors of class II histone deacetylases. Validation studies of the inhibition of the enzymatic activity of HDAC4 by small molecules as a novel approach for cancer therapy” (J Med Chem, 2009).

The structures appear in SMILES notation.

The nature of the assay: Selectivity ratio of IC50 for Escherichia coli HDAC4 WT (653-1084) to IC50 for HDAC1.

For `O=C(O)c1cccc(-c2ccc(C(=O)C(F)(F)F)s2)c1`, the Ratio IC50 was 40.
